# Measurements: patent US12171806B2, “Therapeutic regimens and methods for lowering blood glucose and/or body weight using GLP-1R and GCGR balanced agonists” (priority 2021, dated 2024)
# Experiment: Phase 1 MAD study of ALT-801: adverse events (TEAEs), safety overview
# Settings: M1 1.2 mg (N = 7)
compound,measurement,value
"CC[C@H](C)[C@H](NC(=O)[C@H](Cc1ccccc1)NC(=O)[C@H](CCC(=O)O)NC(=O)[C@@H]1CCCCNC(=O)CC[C@H](NC(=O)[C@H](CC(=O)O)NC(=O)[C@H](CC(C)C)NC(=O)[C@H](Cc2ccc(O)cc2)NC(=O)[C@H](CCCCN)NC(=O)[C@H](CO)NC(=O)[C@H](Cc2ccc(O)cc2)NC(=O)[C@H](CC(=O)O)NC(=O)[C@H](CO)NC(=O)[C@@H](NC(=O)[C@H](Cc2ccccc2)NC(=O)[C@@H](NC(=O)CNC(=O)[C@H](CCC(N)=O)NC(=O)C(C)(C)NC(=O)[C@@H](N)Cc2c[nH]cn2)[C@@H](C)O)[C@@H](C)O)C(=O)N[C@@H](CCCCNC(=O)[C@H]2O[C@@H](OCCCCCCCCCCCCCCCCCC(=O)O)[C@H](O)[C@@H](O)[C@@H]2O)C(=O)N[C@@H](C)C(=O)N[C@@H](C)C(=O)N1)C(=O)N[C@@H](CCC(N)=O)C(=O)N[C@@H](Cc1c[nH]c2ccccc12)C(=O)N[C@@H](CC(C)C)C(=O)N[C@@H](CC(C)C)C(=O)N[C@@H](CCC(N)=O)C(=O)N[C@H](C(N)=O)[C@@H](C)O [ALT-801, pemvidutide]",TEAE Application site erythema; Severe; n,0
same,TEAE Blood and lymphatic system disorders; Mild; %,(0.0%)
same,TEAE Blood and lymphatic system disorders; Mild; n,0
same,TEAE Blood and lymphatic system disorders; Moderate; %,(0.0%)
same,TEAE Blood and lymphatic system disorders; Moderate; n,0
same,TEAE Blood and lymphatic system disorders; Severe; %,(0.0%)
same,TEAE Blood and lymphatic system disorders; Severe; n,0
same,TEAE Cardiac disorders; Mild; %,(0.0%)
same,TEAE Cardiac disorders; Mild; n,0
same,TEAE Cardiac disorders; Moderate; %,(0.0%)
same,TEAE Cardiac disorders; Moderate; n,0
same,TEAE Cardiac disorders; Severe; %,(0.0%)
same,TEAE Cardiac disorders; Severe; n,0
same,TEAE Constipation; Mild; %,(0.0%)
same,TEAE Constipation; Mild; n,0
same,TEAE Constipation; Moderate; %,(0.0%)
same,TEAE Constipation; Moderate; n,0
same,TEAE Constipation; Severe; %,(0.0%)
same,TEAE Constipation; Severe; n,0
same,TEAE Diarrhoea; Mild; %,(0.0%)
same,TEAE Diarrhoea; Mild; n,0
same,TEAE Diarrhoea; Moderate; %,(0.0%)
same,TEAE Diarrhoea; Moderate; n,0
same,TEAE Diarrhoea; Severe; %,(0.0%)
same,TEAE Diarrhoea; Severe; n,0
same,TEAE Dyspepsia; Mild; %,(0.0%)
same,TEAE Dyspepsia; Mild; n,0
same,TEAE Dyspepsia; Moderate; %,(0.0%)
same,TEAE Dyspepsia; Moderate; n,0
same,TEAE Dyspepsia; Severe; %,(0.0%)
same,TEAE Dyspepsia; Severe; n,0
same,TEAE Early satiety; Mild; %,(0.0%)
same,TEAE Early satiety; Mild; n,0
same,TEAE Early satiety; Moderate; %,(0.0%)
same,TEAE Early satiety; Moderate; n,0
same,TEAE Early satiety; Severe; %,(0.0%)
same,TEAE Early satiety; Severe; n,0
same,TEAE Eye disorders; Mild; %,(14.3%)
same,TEAE Eye disorders; Mild; n,1
same,TEAE Eye disorders; Moderate; %,(0.0%)
same,TEAE Eye disorders; Moderate; n,0
same,TEAE Eye disorders; Severe; %,(0.0%)
same,TEAE Eye disorders; Severe; n,0
same,TEAE Eye pain; Mild; %,(14.3%)
same,TEAE Eye pain; Mild; n,1
same,TEAE Eye pain; Moderate; %,(0.0%)
same,TEAE Eye pain; Moderate; n,0
same,TEAE Eye pain; Severe; %,(0.0%)
same,TEAE Eye pain; Severe; n,0
same,TEAE Fatigue; Mild; %,(14.3%)
same,TEAE Fatigue; Mild; n,1
same,TEAE Fatigue; Moderate; %,(0.0%)
same,TEAE Fatigue; Moderate; n,0
same,TEAE Fatigue; Severe; %,(0.0%)
same,TEAE Fatigue; Severe; n,0
same,TEAE Food poisoning; Mild; %,(0.0%)
same,TEAE Food poisoning; Mild; n,0
same,TEAE Food poisoning; Moderate; %,(0.0%)
same,TEAE Food poisoning; Moderate; n,0
same,TEAE Food poisoning; Severe; %,(0.0%)
same,TEAE Food poisoning; Severe; n,0
same,TEAE Fungal infection; Mild; %,(14.3%)
same,TEAE Fungal infection; Mild; n,1
same,TEAE Fungal infection; Moderate; %,(0.0%)
same,TEAE Fungal infection; Moderate; n,0
same,TEAE Fungal infection; Severe; %,(0.0%)
same,TEAE Fungal infection; Severe; n,0
same,TEAE Fungal skin; Mild; %,(0.0%)
same,TEAE Fungal skin; Mild; n,0
same,TEAE Gastrointestinal disorders; Mild; %,(14.3%)
same,TEAE Gastrointestinal disorders; Mild; n,1
same,TEAE Gastrointestinal disorders; Moderate; %,(14.3%)
same,TEAE Gastrointestinal disorders; Moderate; n,1
same,TEAE Gastrointestinal disorders; Severe; %,(0.0%)
same,TEAE Gastrointestinal disorders; Severe; n,0
same,TEAE Haematemesis; Mild; %,(0.0%)
same,TEAE Haematemesis; Mild; n,0
same,TEAE Haematemesis; Moderate; %,(0.0%)
same,TEAE Haematemesis; Moderate; n,0
same,TEAE Haematemesis; PLT; %,(0.0%)
same,TEAE Haematemesis; PLT; n,0
same,TEAE Haematemesis; Severe; %,(0.0%)
same,TEAE Haematemesis; Severe; n,0
same,TEAE Infections and infestations; Mild; %,(14.3%)
same,TEAE Infections and infestations; Mild; n,1
same,TEAE Infections and infestations; Moderate; %,(0.0%)
same,TEAE Infections and infestations; Moderate; n,0
same,TEAE Infections and infestations; PLT; %,(0.0%)
same,TEAE Infections and infestations; PLT; n,0
same,TEAE Infections and infestations; Severe; %,(0.0%)
